Results published in patent US6375993B1, “Pomegranate extracts and methods of using thereof” (priority 1999, dated 2002).

Test: Free radical scavenging capacity (DPPH)
Settings: 50 μmol/L of vitamin E; 100 μmol/L DPPH
Experimental: DPPH (1,1-diphenyl-2-picryl-hydrazyl) is a radical-generating substance which is widely used to monitor free radical scavenging abilities of various antioxidants (51). To analyze free radical scavenging capacity, increasing concentrations of pomegranate juice (0-14 μmol/L of polyphenols) were mixed with 3 mL of 0.1 mmol DPPH/L in ethanol.

Which “free radical scavenging (DPPH absorbance at 517 nm)” value does the source give for vitamin E here?
The value was “potent free radical scavenger”.
